Read-outs that look alike come from different tables or passages of the source.
Experiments:
[1] = biological target: T1, Axl (Homo sapiens (Human), UniProt P30530); conditions: read-out: IC50 Axl
[2] = biological target: T2, Tyro3 (Homo sapiens (Human), UniProt Q06418); conditions: read-out: IC50 Tyro3
[3] = biological target: T2, Tyro3; assay: biochemical
[4] = biological target: T1, Axl; assay: biochemical

The chains behind the UniProt entries cited, without tags or fusion partners. Residues count along the entry.
UniProt P30530, 26-894 limits assumed: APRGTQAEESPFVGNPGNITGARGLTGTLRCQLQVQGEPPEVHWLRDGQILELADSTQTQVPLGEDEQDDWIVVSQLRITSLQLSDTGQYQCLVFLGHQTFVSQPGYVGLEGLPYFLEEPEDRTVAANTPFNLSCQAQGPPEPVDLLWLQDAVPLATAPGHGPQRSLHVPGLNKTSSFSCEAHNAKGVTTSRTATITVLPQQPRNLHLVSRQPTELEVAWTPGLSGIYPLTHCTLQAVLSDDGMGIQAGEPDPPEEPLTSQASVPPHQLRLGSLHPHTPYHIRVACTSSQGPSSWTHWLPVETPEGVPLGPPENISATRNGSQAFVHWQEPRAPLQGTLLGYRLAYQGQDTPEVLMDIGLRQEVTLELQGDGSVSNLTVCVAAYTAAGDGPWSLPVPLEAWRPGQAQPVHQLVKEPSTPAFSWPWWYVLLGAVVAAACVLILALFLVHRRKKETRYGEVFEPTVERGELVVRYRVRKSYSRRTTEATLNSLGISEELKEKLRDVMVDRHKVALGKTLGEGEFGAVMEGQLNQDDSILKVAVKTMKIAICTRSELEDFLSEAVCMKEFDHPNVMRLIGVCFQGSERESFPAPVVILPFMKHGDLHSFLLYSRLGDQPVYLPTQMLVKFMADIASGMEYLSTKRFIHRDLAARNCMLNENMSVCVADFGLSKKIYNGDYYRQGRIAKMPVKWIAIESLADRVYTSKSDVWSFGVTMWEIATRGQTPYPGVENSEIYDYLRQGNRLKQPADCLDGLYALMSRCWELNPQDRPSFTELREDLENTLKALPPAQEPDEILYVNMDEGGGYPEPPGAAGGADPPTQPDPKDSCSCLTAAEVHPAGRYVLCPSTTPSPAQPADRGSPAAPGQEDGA
UniProt Q06418, 41-890 limits assumed: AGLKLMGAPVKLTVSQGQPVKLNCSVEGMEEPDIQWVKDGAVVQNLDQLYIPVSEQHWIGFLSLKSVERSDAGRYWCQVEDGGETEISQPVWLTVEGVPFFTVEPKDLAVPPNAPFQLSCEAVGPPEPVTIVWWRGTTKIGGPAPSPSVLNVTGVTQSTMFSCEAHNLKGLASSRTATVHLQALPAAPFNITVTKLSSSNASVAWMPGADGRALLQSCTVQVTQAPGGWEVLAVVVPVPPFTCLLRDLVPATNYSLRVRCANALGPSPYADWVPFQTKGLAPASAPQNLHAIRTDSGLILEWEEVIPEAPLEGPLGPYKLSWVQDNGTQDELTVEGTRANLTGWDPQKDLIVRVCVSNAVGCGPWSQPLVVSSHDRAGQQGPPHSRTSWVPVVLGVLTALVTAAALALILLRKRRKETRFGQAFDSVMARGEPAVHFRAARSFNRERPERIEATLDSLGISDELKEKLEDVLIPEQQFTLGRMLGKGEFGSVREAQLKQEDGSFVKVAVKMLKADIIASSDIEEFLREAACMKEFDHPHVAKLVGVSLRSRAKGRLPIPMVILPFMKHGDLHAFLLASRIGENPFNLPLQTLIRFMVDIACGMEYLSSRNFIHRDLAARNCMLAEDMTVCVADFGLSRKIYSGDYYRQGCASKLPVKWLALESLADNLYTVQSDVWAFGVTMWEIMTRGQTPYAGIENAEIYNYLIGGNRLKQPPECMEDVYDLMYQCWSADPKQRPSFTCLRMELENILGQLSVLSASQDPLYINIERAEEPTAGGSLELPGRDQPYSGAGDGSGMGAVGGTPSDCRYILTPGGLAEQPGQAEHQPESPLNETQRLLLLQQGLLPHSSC

| Structure (SMILES) | IC50 [1] [nM] | IC50 [2] [nM] | IC50 [3] [nM] | IC50 [4] [nM] |
| --- | --- | --- | --- | --- |
| CCCCNc1ncc(C(=O)NC2CCN(C)CC2)c(N[C@H]2CC[C@H](O)CC2)n1 [UNC2601A] | 618 | 249 |  |  |
| CCCCNc1ncc(-c2ccc(C(=O)N3CCN(C)CC3)cn2)c(N[C@H]2CC[C@H](O)CC2)n1 [UNC3027A] |  |  | 31 | 125 |
| CCCCNc1ncc(-c2cccc(CN3CCOCC3)n2)c(N[C@H]2CC[C@H](O)CC2)n1 [UNC3125A] |  |  | 259 | 1130 |
| C=Cc1ccc(Nc2ncc(-c3ccccn3)c(N[C@H]3CC[C@H](O)CC3)n2)cc1 [UNC3204A] |  |  | 32 | 147 |
| O[C@H]1CC[C@H](Nc2nc(Nc3cccc4ccccc34)ncc2-c2ccccn2)CC1 [UNC3205A] |  |  | 50 |  |
| C#Cc1ccccc1Nc1ncc(-c2ccccn2)c(N[C@H]2CC[C@H](O)CC2)n1 [UNC3206A] |  |  | 15100 | 30000 |
| O[C@H]1CC[C@H](Nc2nc(Nc3ccc4ccccc4c3)ncc2-c2ccccn2)CC1 [UNC3207A] |  |  | 38 | 256 |
| C#Cc1cccc(Nc2ncc(-c3ccccn3)c(N[C@H]3CC[C@H](O)CC3)n2)c1 [UNC3223A] |  |  | 2.6 | 164 |
| O[C@H]1CC[C@H](Nc2nc(Nc3ccccn3)ncc2-c2ccccn2)CC1 [UNC3224A] |  |  | 81 | 30000 |
| CCCCNc1ncc(-c2ccc(C3(N4CCN(C)CC4)CCC3)cn2)c(NC2CCC(O)CC2)n1 (centres unmarked) [UNC3669A] | 26 | 7.7 |  |  |
| CCCCNc1ncc(-c2ccc(CNCC34CC5CC(CC(C5)C3)C4)cn2)c(N[C@H]2CC[C@H](O)CC2)n1 [UNC4103A] | 4.4 | 1.3 |  |  |
| COc1ccc(Nc2ncc(-c3ccc(CN4CCCC4)cn3)c(N[C@H]3CC[C@H](O)CC3)n2)cc1 [UNC4240A] | 11 | 2.4 |  |  |
| Cc1ccc(Nc2ncc(-c3ccc(CN4CCCC4)cn3)c(N[C@H]3CC[C@H](O)CC3)n2)cc1 [UNC4242A] | 6.7 | 1.2 |  |  |
| O[C@H]1CC[C@H](Nc2nc(Nc3ccc(C(F)(F)F)cc3)ncc2-c2ccc(CN3CCCC3)cn2)CC1 [UNC4243A] | 13 | 3.8 |  |  |
| O[C@H]1CC[C@H](Nc2nc(Nc3ccccc3F)ncc2-c2ccc(CN3CCCC3)cn2)CC1 [UNC4244A] | 93 | 3.2 |  |  |
| N#Cc1ccc(Nc2ncc(-c3ccc(CN4CCCC4)cn3)c(N[C@H]3CC[C@H](O)CC3)n2)cc1 [UNC4372A] |  |  | 3.6 | 3.9 |
| O[C@H]1CC[C@H](Nc2nc(Nc3ccc(Cl)cc3)ncc2-c2ccc(CN3CCCC3)cn2)CC1 [UNC4373A] | 2.7 | 4.5 |  |  |
| O[C@H]1CC[C@H](Nc2nc(Nc3ccc(Br)cc3)ncc2-c2ccc(CN3CCCC3)cn2)CC1 [UNC4377A] | 2.8 | 4.6 |  |  |

— patent US9649309B2 (priority 2014, dated 2017)
